Amino acid sequences for entries named in this document (tags omitted).
UniProt Q9Y3Z3, whole entry T592E: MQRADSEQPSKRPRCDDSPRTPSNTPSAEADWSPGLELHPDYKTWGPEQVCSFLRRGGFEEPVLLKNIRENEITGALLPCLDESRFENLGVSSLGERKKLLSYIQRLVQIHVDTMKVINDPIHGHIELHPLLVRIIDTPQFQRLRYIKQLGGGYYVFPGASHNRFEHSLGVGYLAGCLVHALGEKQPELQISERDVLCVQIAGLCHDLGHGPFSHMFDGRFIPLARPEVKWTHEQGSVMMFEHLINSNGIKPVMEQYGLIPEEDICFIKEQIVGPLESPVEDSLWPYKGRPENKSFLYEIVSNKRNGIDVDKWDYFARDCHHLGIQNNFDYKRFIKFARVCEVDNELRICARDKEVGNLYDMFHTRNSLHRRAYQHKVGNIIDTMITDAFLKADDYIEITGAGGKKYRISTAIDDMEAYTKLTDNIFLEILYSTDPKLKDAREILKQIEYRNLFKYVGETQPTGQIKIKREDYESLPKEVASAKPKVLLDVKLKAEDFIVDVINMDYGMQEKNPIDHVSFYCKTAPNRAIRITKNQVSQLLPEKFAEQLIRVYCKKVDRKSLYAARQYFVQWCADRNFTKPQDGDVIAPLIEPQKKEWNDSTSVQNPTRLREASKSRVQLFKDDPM

In paper PMC9303311:

Molecular target: SAMHD1 (UniProt Q9Y3Z3)
Assay: glutaraldehyde crosslinking time course with ssDNA
Details: reference: unphosphorylated wild type; sites T592

## SAMHD1 (from UniProt Q9Y3Z3) T592E
  other: tetramer dissociation half-life: weaker; reference 17
